Laboratory results from ChEMBL document CHEMBL1122420, “Parasympatholytic (anticholinergic) esters of the isomeric 2-tropanols. 2. Non-glycolates” (J Med Chem, 1983).

Test system: Mus musculus
Assay: Induction of mydriasis in mice following s.c. administration.
Assay type: functional

COc1cc(C(=O)OC2CN3CCC2CC3)cc(OC)c1OC (stereo unspecified)
ED50: > 10 mg/kg
